# Assay results from PubChem BioAssay AID1346428 (National Center for Advancing Translational Sciences (NCATS), 2018).
# The chains behind the UniProt entries cited, without tags or fusion partners.
# UniProt O75388, whole entry: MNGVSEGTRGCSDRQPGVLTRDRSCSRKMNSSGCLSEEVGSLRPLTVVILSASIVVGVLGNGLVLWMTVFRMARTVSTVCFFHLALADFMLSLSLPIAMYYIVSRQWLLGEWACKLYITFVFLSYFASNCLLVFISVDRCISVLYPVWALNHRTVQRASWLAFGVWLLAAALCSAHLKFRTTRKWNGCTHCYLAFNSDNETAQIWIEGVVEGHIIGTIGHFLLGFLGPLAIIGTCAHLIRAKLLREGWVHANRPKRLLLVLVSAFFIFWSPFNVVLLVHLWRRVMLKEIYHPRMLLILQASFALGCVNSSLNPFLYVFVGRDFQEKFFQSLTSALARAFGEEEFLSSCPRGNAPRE
# This is a selection; strong and weak results do not stand in their true shares. The source made the active and inactive calls.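 How the source made its calls: active means activation of at least 60% and not above a set upper limit (about 1 call in 100 departs from these limits); inconclusive means activation of 40% to 60%, or above that upper limit; inactive means activation under 40%.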
# Target: Probable G-protein coupled receptor 32 (Homo sapiens) (UniProt O75388)
# Experiment: qHTS for Agonists of Human Resolvin D1 Receptor DRV1; further: 0% is about no effect
# Conditions: CHO-K1 GPR32 beta-arrestin PathHunter luminescence, 90 min; at 76.9 µM; active compounds read high; zero percent set by DMSO-only wells
row,SMILES,activation
1,CCC(=O)N(c1ccccc1)C1CCNCC1,inactive: -14.9%
2,O=C(NCC1(N2CCOCC2)CCCCC1)c1ccccc1[N+](=O)[O-],inactive: 4.17%
3,O=C(NCC1(N2CCOCC2)CCCCC1)c1ccc([N+](=O)[O-])cc1,inactive: 18%
4,O=C(NCC1(N2CCOCC2)CCCCC1)c1ccccc1,inactive: 0.765%
5,CN(C)C1(CNC(=O)c2ccc(C(C)(C)C)cc2)CCCCC1,inactive: 16.6%
6,Cc1ccccc1C(=O)NCC1(N(C)C)CCCCC1,inactive: -9.56%
7,CC(C)(C)c1ccc(C(=O)NCC2(N3CCOCC3)CCCCC2)cc1,inactive: 46.3%
8,COc1cc(C(=O)NCC2(N3CCOCC3)CCCCC2)cc(OC)c1OC,inactive: 0.057%
9,CCOC(=O)N1CCC(=O)CC1,inactive: 0.48%
10,COc1ccccc1C(=O)NCC1(N2CCOCC2)CCCCC1,inactive: 27%
11,O=C(NCC1(N2CCOCC2)CCCCC1)c1ccc(Cl)cc1,inactive: 7.46%
12,CCOc1ccc(C(=O)NCC2(N3CCOCC3)CCCCC2)cc1,inactive: -20.7%
13,CCCOc1cccc(C(=O)NCC2(N3CCOCC3)CCCCC2)c1,inactive: -24.7%
14,CCCCOc1ccccc1C(=O)NCC1(N2CCOCC2)CCCCC1,inactive: -45.2%
15,O=C(NCC1(N2CCOCC2)CCCCC1)c1ccccc1Br,inactive: -9.99%
